Measured values from PubChem BioAssay AID2549 (National Center for Advancing Translational Sciences (NCATS), 2010).
Only a part is listed here, and it is no random draw. The source made the active and inactive calls. The call rests on the fitted dose curve; in most records, active means well fitted inhibition curve with a large enough effect; inconclusive means small, poorly fitted or top-dose-only effect; inactive means flat fitted curve, though single readings scatter.

Protein sequences, listed by entry. Tags and fused reporters are not part of them.
UniProt P46063, whole entry: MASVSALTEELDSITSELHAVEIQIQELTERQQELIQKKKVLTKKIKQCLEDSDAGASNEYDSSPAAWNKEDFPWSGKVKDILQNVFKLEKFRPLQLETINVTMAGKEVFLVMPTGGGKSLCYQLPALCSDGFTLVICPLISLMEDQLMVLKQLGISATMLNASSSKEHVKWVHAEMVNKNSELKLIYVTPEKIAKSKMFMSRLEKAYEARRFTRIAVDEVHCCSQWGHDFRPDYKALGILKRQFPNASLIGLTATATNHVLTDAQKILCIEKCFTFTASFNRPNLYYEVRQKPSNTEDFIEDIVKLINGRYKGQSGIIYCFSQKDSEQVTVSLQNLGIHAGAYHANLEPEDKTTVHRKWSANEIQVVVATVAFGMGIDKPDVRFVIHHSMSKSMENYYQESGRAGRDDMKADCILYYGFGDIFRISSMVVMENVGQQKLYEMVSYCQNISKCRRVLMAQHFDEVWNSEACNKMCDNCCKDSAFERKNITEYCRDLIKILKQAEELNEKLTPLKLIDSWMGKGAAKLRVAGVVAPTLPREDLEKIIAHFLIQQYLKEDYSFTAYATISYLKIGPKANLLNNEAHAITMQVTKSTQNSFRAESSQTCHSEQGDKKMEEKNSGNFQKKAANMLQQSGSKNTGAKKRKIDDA

Target: ATP-dependent DNA helicase Q1 (Homo sapiens) (UniProt P46063)
Experiment: qHTS Assay for Inhibitors of RecQ-Like Dna Helicase 1 (RECQ1); further: nearly all actives have a fitted effect of over 30% in size;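 on activity, negative = inhibition: plate controls were vehicle for no effect and no enzyme for full effect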
Conditions: RECQ1 DNA unwinding, red fluorescence kinetic read; activity, negative = inhibition: at 57.3 µM (top of the series)
Text: Survival of cells and the faithful propagation of the genome depend on elaborate mechanisms of detecting and repairing DNA damage. Treatment of advanced cancer relies on radiation therapy or chemotherapy, which kill cancer cells by causing extensive DNA damage. It is often found, that cancer cells develop resistance to therapy through enhanced activity of DNA repair functions; this has led to an increased interest in developing drugs that interfere with DNA repair, which could sensitize cancer cells to conventional therapy.
This validation qHTS assay pertains to human RECQ1, which is important in resolving abnormal DNA structures formed during replication or homologous recombination. Shutting down the expression of RECQ1 leads to chromosomal instability and higher radiation sensitivity in cultured cells.
The validation assay was a fluorescence quenching based kinetic qHTS for RECQ1 Helicase DNA unwinding. The activity was measured as ATP-dependent separation of a 20-bp DNA duplex extended by 30-nt single-stranded tails (forked duplex). […] Strand separation results in an increase in the fluorescence of TAMRA (excitation 525 nm, emission 598 nm). […]
Three uL of reaction buffer (25 mM Tris-HCl (pH 8.0), 5 mM NaCl, 2 mM MgCl2, 1mM DTT, 0.01% Tween- 20, and 2.5 ug/ml poly(dI-dC), including enzyme (50 nM RECQ1T1), were dispensed into a 1536-well Greiner black assay plate via solenoid-valve based nanoliter dispensers. Compounds (23 nl each in columns 5-48) and control (23 nl each in column 2 as dose-response) were transferred via a Kalypsys pintool equipped with a 1536-pin array. The plates were incubated for 15 min at room temperature, and then 1 ul of substrates (200 nM DNA and 2 mM ATP, final concentrations) was added to start the reaction. The plate was transferred into a ViewLux high-throughput CCD imager where the reaction progress was measured in a discontinuous kinetic mode (two reads spaced 2 hours apart, with intermediate room temperature incubation of the covered assay plate) by using standard red-fluorescence optics (excitation filter 525 nm, emission filter 598 nm). […]

SMILES	activity, negative = inhibition	outcome
O=[N+]([O-])C(Cl)(Cl)Cl	inactive: -2.83%	–
CN(CCCl)CCCl	inactive: 6.36%	inactive
